Earlier results in article PMC3357308 (Diabetes, 2012).

Test system: 11βHSD1
Conditions: liver, in vivo, d4-cortisol tracer; cited from earlier work

C[C@]12CCC(=O)C=C1CC[C@@H]1[C@@H]2[C@@H](O)C[C@@]2(C)[C@H]1CC[C@]2(O)C(=O)CO [cortisol]
cortisol released by hepatic 11βHSD1: ~900 pmol/100 g tissue/min
